Nrf2 inh – blocks Nrf2 signaling; actives 2.1% (n = 360,000); A549 ARE-Fluc reporter, luciferase luminescence, 18-24 h; Potency, µM (top dose mostly 46 µM), for inactives: at the top dose activity change, negative = inhibition, usual class: inhibitors; note: potency is the fitted concentration of half-maximal effect; % is set by controls: 0 for no effect and ±100 for the full control effect; nearly all actives have a fitted effect of over 60% in size
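Quantitative HTS in A549 cells stably bearing an antioxidant response element-firefly luciferase construct. Inhibition of Nrf2-driven transcription was scored by luminescence after 18-24 h of compound exposure at 37 °C.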
Glioma ERSR ind – ER stress response induction in glioma | U87-MG GRP78 promoter luciferase reporter, 16 h | Potency, µM, inactives show top-dose activation, most hits filed as activators | actives 0.02% (n = 420,000) | AID 602332; note: potency is the fitted concentration of half-maximal effect; series mostly up to about 76 µM; % of control where 0% means no effect; nearly all actives have a fitted effect of over 35% in size
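Stably transfected U87-MG glioma cells carrying a GRP78-based luciferase sensor; 16 h compound incubation. Luminescence end-point read 10 min after Bright-Glo addition at room temperature.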
Mito fusion act – inhibitors of mitochondrial division or activators of mitochondrial fusion | S. cerevisiae fusion-defective mutant growth rescue, CellTiterGlo 48 h | Potency, µM (highest dose often 46.1 µM), for the others: at the highest dose growth rescue (activation), most hits filed as activators | actives 0.23% (n = 320,000) | AID 485298; note: potency is the fitted concentration of half-maximal effect; % of control where 0% means no effect; nearly all actives have a fitted effect of over 45% in size
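Compounds are tested for their ability to restore growth of mitochondrial fusion-defective yeast strains at non-permissive 37C in YPEG medium over 48 hours. Viability is quantified by luciferase luminescence.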
A549 viability – counter-screen for Nrf2 inhibitors: cytotoxicity in A549 cells; A549 ARE-Fluc cells, CellTiter-Fluor viability, 18-24 h; Potency, µM (series often up to 46 µM), without a hit: top-dose activity change, negative = cytotoxicity, usual class: inhibitors; actives 0.16% (n = 390,000); AID 504648; note: potency is the fitted concentration of half-maximal effect; % is set by controls: 0 for no effect and ±100 for the full control effect
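A549 ARE_Fluc cells in 5% FBS OPTI-MEM were exposed to compounds in concentration-response for 18-24 h at 37 deg C. Viability was read by CellTiter-Fluor fluorescence (Ex 405/Em 525) after 30 min, before the luciferase read.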
miR-21 reporter – raises the signal of a miR-21 reporter; Potency, µM (doses to about 38.3 µM), inactives show top-dose reporter change, positive = more light; HeLa miR-21 FLuc reporter, luciferase, 48 h; AID 2288; 340,000 tested, under 10 active; active = well fitted rising curve with a large enough effect; inconclusive = small, poorly fitted or top-dose-only effect; inactive = no such curve, though single readings can be large or run the other way;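 further: % of control where 0% means no effect; miR-21 action dims this reporter so a rising signal means less miR-21 action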
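HeLa miR-21-FLuc reporter line, endogenous miR-21; 2000 cells/well in DMEM/10% FBS; compound titration up to ~40uM final, 48 h, 37 degree Celsius; luciferase detection reagent, 15 min lysis, CCD luminescence.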
Nrf2 ARE act – activators of Nrf2 (ARE) signaling; Potency, µM (series often up to 46.1 µM), for inactives: at the highest dose activation, hits mostly activators; AID 624171; actives 0.31% (n = 410,000); AREc32 ARE-luciferase reporter (MCF7-derived line), luminescence, 24 h; note: potency is the fitted concentration of half-maximal effect; % of control where 0% means no effect; nearly all actives have a fitted effect of over 65% in size
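ARE-driven firefly luciferase activity in AREc32 cells measured after a 24 hr compound exposure at 37 deg C, using Steady-Glo reagent and a 30 min room-temperature hold.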
Active calls of the source: *; [ ] = another dose, or the depositor's remark. In the library only some 2.3% were active in any assay of this set; here they are far more common. Calls come from the whole dose curve; as a rule, active = well fitted curve in the direction sought with a large enough effect; inconclusive = small, poorly fitted or top-dose-only effect, or another doubt; inactive = no such curve, though single readings can be large; an effect the other way counts as inactive or inconclusive.

What do the screens show for `Cc1ccc(NC(=O)CCNS(=O)(=O)c2ccc3[nH]c(=O)oc3c2)c(Cl)c1`?
Nrf2 inh: 14%; Glioma ERSR ind: -4%; Mito fusion act: 11%; A549 viability: -2%; miR-21 reporter: -1%; Nrf2 ARE act: 2%

How did Cc1cc(C)cc(OCC(=O)Nc2cccc3cccnc23)c1 do in these assays?
Nrf2 inh: 3%; Glioma ERSR ind: -2%; A549 viability: 1%; miR-21 reporter: -15%; Nrf2 ARE act: 0%

How did Clc1ccc2oc(-c3ccccc3)cc(=NCCCN3CCOCC3)c2c1 do in these assays?
Nrf2 inh: 24%; Glioma ERSR ind: 3%; Mito fusion act: 0%; A549 viability: 8%; miR-21 reporter: -77%; Nrf2 ARE act: 13µM*

Results for O=C(COc1ccc(S(=O)(=O)N2CCOCC2)cc1Cl)NCCCn1ccnc1 ?
Nrf2 inh: -4%; Glioma ERSR ind: -2%; Mito fusion act: -3%; A549 viability: 1%; miR-21 reporter: 0%; Nrf2 ARE act: 0%

How did COc1cc(Br)cc(/C=N/NC(=O)Cc2ccc(C(F)(F)F)cc2[N+](=O)[O-])c1O do in these assays?
Nrf2 inh: 16µM*; Glioma ERSR ind: 13%; Mito fusion act: 3%; A549 viability: inconclusive; miR-21 reporter: -3%; Nrf2 ARE act: -2%

Results for CC(=O)Nc1ccc(NS(=O)(=O)c2ccc(OC(C)C(=O)N3CCOCC3)cc2)cc1 (stereo not drawn) ?
Nrf2 inh: 4%; Glioma ERSR ind: -4%; Mito fusion act: -10%; A549 viability: 1%; Nrf2 ARE act: 0%

Results for O=C(OCc1c(-c2ccccc2)ncc2ccccc12)c1cccs1 ?
Nrf2 inh: 16µM*; Glioma ERSR ind: 0%; A549 viability: inconclusive; Nrf2 ARE act: inconclusive

What do the screens show for `COc1cccc(-c2ncc3ccccc3c2COC(=O)c2ccc(Br)cc2)c1`?
Nrf2 inh: -19%; Glioma ERSR ind: -6%; Mito fusion act: -8%; A549 viability: 4%; Nrf2 ARE act: 3%

Results for O=C(OCc1c(-c2ccccc2)ncc2ccccc12)c1ccc(Br)cc1 ?
Nrf2 inh: 15µM*; Glioma ERSR ind: 0%; Mito fusion act: 5%; A549 viability: -6%; Nrf2 ARE act: 0%

How did CC1CCN(S(=O)(=O)c2cc(C(=O)N3CCN(c4ncccn4)CC3)ccc2Br)CC1 do in these assays?
Nrf2 inh: 23µM*; Glioma ERSR ind: -4%; Mito fusion act: 8%; A549 viability: 1%; miR-21 reporter: 12%; Nrf2 ARE act: 0%

How did CN(C)C(=O)c1cc(S(=O)(=O)N(C)C)c(Cl)cc1N1CCCC1 do in these assays?
Nrf2 inh: -3%; Glioma ERSR ind: -3%; Mito fusion act: 0%; A549 viability: -6%[1.84 µM]; miR-21 reporter: -7%; Nrf2 ARE act: 0%

How did N#C/C(=N\Nc1cccc(F)c1)C(=O)C1CC1 do in these assays?
Nrf2 inh: 21µM*; Glioma ERSR ind: -4%; Mito fusion act: 2%; A549 viability: inconclusive; miR-21 reporter: -17%; Nrf2 ARE act: 0%

How did N#C/C(=N\Nc1cccc(F)c1)C(=N)N1CCCCCC1 do in these assays?
Nrf2 inh: inconclusive; Glioma ERSR ind: -1%; Mito fusion act: 0%; A549 viability: -24%; miR-21 reporter: -56%; Nrf2 ARE act: 0%

How did COc1ccc2nc(Sc3c([N+](=O)[O-])nc(C)n3Cc3ccccc3)[nH]c2c1 do in these assays?
Nrf2 inh: 13µM*; Glioma ERSR ind: -16%; Mito fusion act: -4%; A549 viability: inconclusive; miR-21 reporter: 20%; Nrf2 ARE act: inconclusive

What do the screens show for `c1ccc(N2CCN(c3nc(-c4ccccn4)nc4ccccc34)CC2)cc1`?
Nrf2 inh: 16µM*; Glioma ERSR ind: -4%; Mito fusion act: -4%; A549 viability: inconclusive; miR-21 reporter: inconclusive; Nrf2 ARE act: 0%

Results for CN1CCN(c2nc(-c3ccccn3)nc3ccccc23)CC1 ?
Nrf2 inh: 5%; Glioma ERSR ind: -3%; Mito fusion act: -3%; A549 viability: -15%; miR-21 reporter: inconclusive; Nrf2 ARE act: -1%

What do the screens show for `COc1ccccc1CNS(=O)(=O)c1ccc(-c2cc(C(F)(F)F)on2)s1`?
Nrf2 inh: inconclusive; Glioma ERSR ind: -2%; A549 viability: -2%; miR-21 reporter: 9%; Nrf2 ARE act: 0%

What do the screens show for `COc1ccc(OC)c(CNS(=O)(=O)c2ccc(-c3cc(C(F)(F)F)on3)s2)c1`?
Nrf2 inh: 16µM*; Glioma ERSR ind: 1%; A549 viability: -5%; miR-21 reporter: 17%; Nrf2 ARE act: 1%

Results for CCN(C(=O)COC(=O)c1cccnc1Nc1cccc(C(F)(F)F)c1)C1CCS(=O)(=O)C1 (stereo not drawn) ?
Nrf2 inh: 5%; Glioma ERSR ind: 1%; Mito fusion act: 1%; A549 viability: 2%; miR-21 reporter: -26%; Nrf2 ARE act: 11µM*

Results for c1ccc(-c2cn(-c3ccccc3)c3[n+]2CCCS3)cc1 ?
Nrf2 inh: 9.2µM*; Glioma ERSR ind: -4%; Mito fusion act: -2%; A549 viability: -10%; miR-21 reporter: 21%; Nrf2 ARE act: 0%

Ordered by SMILES length (smallest number first): three of the compounds above.
Results for CN1CCN(c2nc(-c3ccccn3)nc3ccccc23)CC1 ?
Nrf2 inh: 5%; Glioma ERSR ind: -3%; Mito fusion act: -3%; A549 viability: -15%; miR-21 reporter: inconclusive; Nrf2 ARE act: -1%

Results for c1ccc(-c2cn(-c3ccccc3)c3[n+]2CCCS3)cc1 ?
Nrf2 inh: 9.2µM*; Glioma ERSR ind: -4%; Mito fusion act: -2%; A549 viability: -10%; miR-21 reporter: 21%; Nrf2 ARE act: 0%

How did CN(C)C(=O)c1cc(S(=O)(=O)N(C)C)c(Cl)cc1N1CCCC1 do in these assays?
Nrf2 inh: -3%; Glioma ERSR ind: -3%; Mito fusion act: 0%; A549 viability: -6%[1.84 µM]; miR-21 reporter: -7%; Nrf2 ARE act: 0%

(list continues)
How did Cc1cc(NC(=O)c2ccc3nccnc3c2)ccc1Br do in these assays?
Nrf2 inh: inconclusive; Glioma ERSR ind: -1%; A549 viability: -5%; Nrf2 ARE act: 3%

What do the screens show for `CCN1c2ccccc2NC2N=C(OC)C(c3ccccc3)C21` (stereo not drawn)?
Nrf2 inh: inconclusive; Glioma ERSR ind: -1%; Mito fusion act: 4%; A549 viability: 21µM*; miR-21 reporter: 23%; Nrf2 ARE act: 0%

What do the screens show for `CCN1c2ccccc2NC2C1C(C(C)=O)C(=O)N2c1ccc(Cl)cc1` (stereo not drawn)?
Nrf2 inh: inconclusive; Glioma ERSR ind: -2%; Mito fusion act: -6%; A549 viability: -12%; miR-21 reporter: -13%; Nrf2 ARE act: 21%

What do the screens show for `O=[N+]([O-])c1ccccc1/C=N/N1CCN(c2ccncc2S(=O)(=O)N2CCCCC2)CC1`?
Nrf2 inh: inconclusive; Glioma ERSR ind: -3%; Mito fusion act: 11µM*; A549 viability: inconclusive; miR-21 reporter: -5%; Nrf2 ARE act: 1%

Results for COc1cccc(C(=O)Nc2ccncc2)c1OC ?
Nrf2 inh: 23µM*; Glioma ERSR ind: -2%; Mito fusion act: 0%; A549 viability: -4%; miR-21 reporter: 7%; Nrf2 ARE act: 0%
